The entries are a selection whose mix differs from that of the whole data set. Calls of active or inactive are those of the source.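 The calls were made as follows: active = inhibition above about 21% made by adding two undisclosed values (limit read from the data); inactive = the rest.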
biological target: Protein arginine N-methyltransferase 1 (Homo sapiens) (UniProt Q99873); test: human PRMT1 activity-probe blockers – biochemical, fluorescence polarization, primary screen (AID 652257); conditions: recombinant PRMT1, activity-based probe fluorescence polarization; at 2.79 µM; stronger effect = higher value

Sequences of proteins named here, by UniProt entry; tags and fusion partners are left off.
UniProt Q99873, whole entry, looked up: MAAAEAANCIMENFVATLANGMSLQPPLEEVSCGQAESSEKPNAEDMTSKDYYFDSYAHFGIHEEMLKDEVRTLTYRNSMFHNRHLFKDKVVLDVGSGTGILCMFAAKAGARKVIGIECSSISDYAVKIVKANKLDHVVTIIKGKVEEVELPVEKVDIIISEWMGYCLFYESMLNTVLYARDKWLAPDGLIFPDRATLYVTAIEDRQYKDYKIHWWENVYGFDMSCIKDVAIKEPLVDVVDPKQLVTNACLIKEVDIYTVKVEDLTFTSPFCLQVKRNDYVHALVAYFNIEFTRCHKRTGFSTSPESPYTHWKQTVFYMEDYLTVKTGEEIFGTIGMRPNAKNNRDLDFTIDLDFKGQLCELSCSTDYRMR

SMILES | inhibition
CN(C)C1(CNC(=O)c2ccc(Cl)c(S(N)(=O)=O)c2)CCCCC1 | inactive: -2.75%
O=P(Nc1ccccn1)(c1ccc(Br)cc1)c1ccc(Br)cc1 | inactive: 0.61%
Nc1ccc(CCCCOc2ccccc2)cc1 | inactive: 0.97%
COc1ccc(N)c([N+](=O)[O-])c1[N+](=O)[O-] | inactive: 14.8%
C[C@H]1OP(=O)(Oc2ccccc2)[C@H](O)[C@H](O)[C@H]1N=[N+]=[N-] (some centres undefined) | inactive: -4.12%
O=P(Nc1nc2ccccc2s1)(c1ccccc1)c1ccccc1 | inactive: -1.85%
O=[As](O)(c1ccccc1)c1ccc(O)cc1 | inactive: -1.69%
CC(=O)NC(SC(=S)N(C)C)C(Cl)(Cl)Cl (centres undefined) | inactive: -0.39%
O=[N+]([O-])c1ncn(CCn2cnc([N+](=O)[O-])n2)n1 | inactive: 1.7%
O=C(OC1CN2CCC1CC2)c1cccc(Cl)c1 (centres undefined) | inactive: -1.64%
Nc1ccc([As](=O)(O)c2ccc([N+](=O)[O-])cc2)cc1 | inactive: -1.42%
C(Cc1nn[nH]n1)Cc1nn[nH]n1 | inactive: -1.13%
C/C(N)=N\P(=O)(OCc1ccccc1)OCc1ccccc1 | inactive: -2.03%
O=P(Nc1nccs1)(c1ccccc1)c1ccccc1 | inactive: -2.26%
CC(C)C(=O)NC(Sc1ccccc1)C(Cl)(Cl)Cl (centres undefined) | inactive: -0.51%
c1nnnn1CCn1cnnn1 | inactive: -1.38%
CCOc1ccc(C2=NCC(CBr)S2)cc1 (centres undefined) | inactive: 0.44%
O=P1(Nc2nc3ccc(Cl)cc3s2)COc2ccccc2O1 (centres undefined) | inactive: 4.01%
CC(C)(C)C(=O)NC(Sc1ccccc1)C(Cl)(Cl)Cl (centres undefined) | inactive: -4.83%
CCc1cc(O)c([N+](=O)[O-])c(C)c1[N+](=O)[O-] | inactive: -0.77%
C[C@@H]1C=CCP(=O)(Oc2ccccc2)O1 (some centres undefined) | inactive: 1.22%
C[C@H]1OP(=O)(Oc2ccccc2)C[C@@H]2O[C@@H]21 (some centres undefined) | inactive: -1.64%
Cc1ccccc1CN(C)C(=O)COC(=O)C(O)(c1ccccc1)c1ccccc1 | inactive: 3.91%
COC(=O)C1(C)COP(=O)(NCc2ccccc2)OC1 (centres undefined) | inactive: 2.07%
N#C/C(=C\c1ccc(N(CCBr)CCBr)cc1)C(N)=O | inactive: -0.37%
CC(=O)c1ccc(N2CC2c2ccncc2)cc1 (centres undefined) | inactive: -1.37%
CC(=O)Nc1ccc(Oc2c([N+](=O)[O-])cc([N+](=O)[O-])cc2[N+](=O)[O-])cc1 | inactive: 10.7%
CC(=O)Nc1ccc([As](=O)(O)O)c(O)c1 | inactive: 2.34%
Cc1ccc(NP(=O)(Oc2cccc(C)c2)Oc2cccc(C)c2)nc1 | inactive: -1.49%

— PubChem BioAssay AID652257 (The Scripps Research Institute Molecular Screening Center, 2013)
